The list is not random: actives were taken first. Their share in the collection is about 0.73%.
RAD52 anneal inh: blocks human RAD52 DNA annealing | 360,000 tested, 0.46% active | inhibition, % at 18.7 µM | P43351 | recombinant RAD52 DNA annealing, FRET fluorescence;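 active = every replicate showing at least 50% inhibition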
Xi reactivation: X-chromosome reactivation activator; XiGFP mouse fibroblasts, % GFP-positive cells imaging, 3 d; cells co-treated with 5-aza-dC sensitizer; scaled so ellipticine positive control = 100%; activation, % at 7.58 µM; 360,000 tested, 0.055% active;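 active = mean normalized replicate activation at least 10% and every replicate at or above 10%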;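 also: 0% = median of on-plate neutral control wells and 100% = ellipticine 6 µM median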
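Material: XiGFP fibroblasts, SV40-immortalized. Buffer or medium: DMEM plus 5-aza-dC sensitizer. Compound: single concentration per compound, delivered by pin transfer. Times: 3 days compound exposure. Controls: ellipticine 6 µM.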
E-selectin induc: induces E-selectin expression in human endothelial cells; HUVEC E-selectin immunofluorescence imaging; normalized: neutral wells 0, TNF-alpha wells 100; activation, % at 7.58 µM; 260,000 tested, 0.37% active; AID 686992;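 active = mean E-selectin-positive cell signal at least 10% of the positive control, reached in at least 60% of replicates, without over 20% cell loss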
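Assay system: HUVEC primary endothelial cells. Input: 3,000 HUVEC seeded per well. Doses: one compound dose added by pin transfer. Read-out basis: % PE-positive cells. Benchmarks: TNF-alpha high, DMSO low. Detection: immunofluorescence imaging. Buffer or medium: EGM-2, gelatin.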
UUG fidelity: alters start codon recognition fidelity in yeast. S. cerevisiae UUG-firefly luciferase reporter, luminescence/redox ratio. 350,000 tested, 0.13% active. activity score, % at 18.7 µM. AID 602363;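 active means replicate mean at a twofold rise or more, about +100% in these data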;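 further: firefly luciferase made from a UUG start codon reports start codon fidelity; reporter light over untreated wells divided by growth signal over untreated wells; some hits fall short of that in this replicate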
RAD54 inh: RAD54 (human) branch migration inhibition; 360,000 tested, 0.14% active; RAD54 Holliday junction branch migration, FAM/BHQ fluorescence; inhibition, % at 10.4 µM; Q92698;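 active = mean normalized replicate activity at least 40 and at least half of replicates scoring 40 or more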;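 also: 0% = median of neutral control wells and 100% = median of positive control wells; inhibitors cause a drop in the FAM fluorescence signal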
* hit, by the source's call.

For C[C@]12CCC(=O)CC1CCC1C2CC[C@@]2(C)C1CC[C@@]21CCO1 (stereo partly specified) the results were RAD52 anneal inh -6, Xi reactivation 0, E-selectin induc 50*, UUG fidelity -11 and RAD54 inh -38.
`C[C@H]1CN([C@@H](C)CO)C(=O)c2cc(NS(=O)(=O)c3cn(C)cn3)ccc2O[C@@H]1CN(C)S(=O)(=O)c1cccs1` gave RAD52 anneal inh -12, Xi reactivation -1, E-selectin induc 0, UUG fidelity -4 and RAD54 inh 0.
For Nc1ccc2c3c(cccc13)C(=O)N(c1ccccc1)C2=O the results were RAD52 anneal inh -433, Xi reactivation 1 and E-selectin induc 0.
CC(C)CCN1C(=O)c2cccc3c(N)ccc(c23)C1=O was read as RAD52 anneal inh inactive, Xi reactivation 99*, E-selectin induc 26*, UUG fidelity -23 and RAD54 inh inactive.
C[C@@H]1CN([C@H](C)CO)C(=O)c2cc(NC(=O)NC3CCCCC3)ccc2O[C@H]1CN(C)S(=O)(=O)c1ccc(Cl)cc1 was read as RAD52 anneal inh 15, Xi reactivation 0, E-selectin induc 141*, UUG fidelity -9 and RAD54 inh 6.
`CC(C)NC(=O)Nc1ccc2c(c1)C(=O)N([C@@H](C)CO)C[C@@H](C)[C@@H](CN(C)S(=O)(=O)c1ccc(Cl)cc1)O2` gave RAD52 anneal inh 7, Xi reactivation 1, E-selectin induc 0, UUG fidelity 2 and RAD54 inh 16.
For CC(C)NC(=O)Nc1ccc2c(c1)C(=O)N([C@H](C)CO)C[C@@H](C)[C@H](CN(C)S(=O)(=O)c1ccc(Cl)cc1)O2 the results were RAD52 anneal inh 5, Xi reactivation -1, E-selectin induc 0, UUG fidelity 8 and RAD54 inh 56*.
Screening Cc1noc(C)c1NC(=O)Nc1ccc2c(c1)CC(=O)N([C@@H](C)CO)C[C@H](C)[C@H](CN(C)Cc1ccc(Cl)c(Cl)c1)O2 returned RAD52 anneal inh 4, Xi reactivation 0, E-selectin induc 8, UUG fidelity 4 and RAD54 inh 0.
Screening COC(=O)[C@]12C[C@H](CC(=O)NCCC(C)C)C(=O)N(Cc3ccccc3)C1=C[C@H](C1CCCC1)O[C@@H]2C returned RAD52 anneal inh -12, Xi reactivation 0 and E-selectin induc 0.
COc1cc(NC(=S)N2CCOCC2)c(OC)cc1Cl was read as RAD52 anneal inh -13, Xi reactivation 0, E-selectin induc 26*, UUG fidelity -13 and RAD54 inh 3.
Cc1cccn2c(=O)c(/C=N/O)c(Nc3ccccc3F)nc12 was read as RAD52 anneal inh -8, Xi reactivation 0 and E-selectin induc 59*.
C[C@@H]1CN([C@@H](C)CO)C(=O)c2cccc(NC(=O)C3CC3)c2O[C@H]1CN(C)CC1CC1 was read as RAD52 anneal inh 10, Xi reactivation 0, E-selectin induc -3, UUG fidelity -7 and RAD54 inh 8.
Screening C[C@@H]1CN([C@H](C)CO)C(=O)c2cccc(NC(=O)C3CCOCC3)c2O[C@H]1CN(C)C(=O)Nc1ccccc1 returned RAD52 anneal inh -5, Xi reactivation 0, E-selectin induc 173*, UUG fidelity -2 and RAD54 inh 1.
Screening C[C@H](CO)N1C[C@H](C)[C@H](CN(C)C(=O)Nc2ccccc2)Oc2c(NC(=O)C3CCOCC3)cccc2C1=O returned RAD52 anneal inh -7, Xi reactivation -1, E-selectin induc 6, UUG fidelity -3 and RAD54 inh -11.
`C[C@@H]1CN([C@H](C)CO)C(=O)c2cccc(NC(=O)C3CC3)c2O[C@H]1CN(C)CC1CC1` gave RAD52 anneal inh 8, Xi reactivation 0, E-selectin induc 111*, UUG fidelity -6 and RAD54 inh 9.
`C[C@@H]1CN([C@@H](C)CO)C(=O)c2cccc(NC(=O)C3CC3)c2O[C@@H]1CN(C)CC1CC1` gave RAD52 anneal inh -21, Xi reactivation 0, E-selectin induc -3, UUG fidelity -9 and RAD54 inh 4.
Screening C[C@@H]1CN([C@H](C)CO)C(=O)c2cccc(NC(=O)C3CC3)c2O[C@@H]1CN(C)CC1CC1 returned RAD52 anneal inh -2, Xi reactivation 0, E-selectin induc 77*, UUG fidelity -8 and RAD54 inh 9.
`CCCC(=O)Nc1ccc2c(c1)C(=O)N(C)[C@@H]1CC[C@H](CC(=O)OC)O[C@@H]1CO2` gave Xi reactivation 0, E-selectin induc 0, UUG fidelity -6 and RAD54 inh 0.
`COc1ccccc1N1CCN(C(=O)c2ccco2)CC1` gave RAD52 anneal inh -8, Xi reactivation 0, E-selectin induc 35*, UUG fidelity 0 and RAD54 inh -9.
Screening C[C@@H]1CN([C@H](C)CO)C(=O)c2cc(NC(=O)CCCN(C)C)ccc2O[C@@H](C)CCCCO[C@H]1CN(C)C(=O)CCCN(C)C returned Xi reactivation 0.

Looked up by structure from the list above, 2 records:
For C[C@]12CCC(=O)CC1CCC1C2CC[C@@]2(C)C1CC[C@@]21CCO1 (stereo partly specified) the results were RAD52 anneal inh -6, Xi reactivation 0, E-selectin induc 50*, UUG fidelity -11 and RAD54 inh -38.
Screening C[C@@H]1CN([C@H](C)CO)C(=O)c2cc(NC(=O)CCCN(C)C)ccc2O[C@@H](C)CCCCO[C@H]1CN(C)C(=O)CCCN(C)C returned Xi reactivation 0.

Next results:
Cc1ccccc1S(=O)(=O)N1C[C@@H](O)COC[C@H]2O[C@H](CC(=O)N3CCC(Cc4ccccc4)CC3)CC[C@@H]21 was read as RAD52 anneal inh 13, Xi reactivation 0, E-selectin induc 0, UUG fidelity 8 and RAD54 inh -2.
Screening Cn1nc(C(=O)NNC(=O)c2ccccc2F)c2ccccc2c1=O returned RAD52 anneal inh -3, Xi reactivation 0, UUG fidelity -41 and RAD54 inh 3.
For Cn1nc(C(=O)NNC(=O)c2ccccc2Br)c2ccccc2c1=O the results were RAD52 anneal inh -5, Xi reactivation 0, E-selectin induc 237*, UUG fidelity -16 and RAD54 inh 6.
Screening CC(C)NC(=O)N(C)C[C@@H]1Oc2c(NC(=O)c3ccc(-c4nccs4)cc3)cccc2C(=O)N([C@@H](C)CO)C[C@H]1C returned RAD52 anneal inh -3, Xi reactivation 0, E-selectin induc 52*, UUG fidelity 2 and RAD54 inh -5.
`CC(C)NC(=O)N(C)C[C@H]1Oc2c(NC(=O)c3ccc(-c4nccs4)cc3)cccc2C(=O)N([C@@H](C)CO)C[C@@H]1C` gave RAD52 anneal inh -1, Xi reactivation 0, E-selectin induc -3, UUG fidelity 6 and RAD54 inh 2.
Screening C[C@@H]1CN([C@@H](C)CO)C(=O)c2cccc(NC(=O)c3ccc(-c4nccs4)cc3)c2O[C@@H]1CN(C)Cc1ccc(Cl)c(Cl)c1 returned RAD52 anneal inh 1, Xi reactivation -1, E-selectin induc 32*, UUG fidelity 4 and RAD54 inh 2.
Screening CC(C)NC(=O)N(C)C[C@H]1Oc2c(NC(=O)CCCCCC(=O)Nc3ccccc3N)cccc2C(=O)N([C@@H](C)CO)C[C@H]1C returned RAD52 anneal inh -7, Xi reactivation 0 and E-selectin induc 40*.

Two successive compounds from above, for reference:
Cc1ccccc1S(=O)(=O)N1C[C@@H](O)COC[C@H]2O[C@H](CC(=O)N3CCC(Cc4ccccc4)CC3)CC[C@@H]21 was read as RAD52 anneal inh 13, Xi reactivation 0, E-selectin induc 0, UUG fidelity 8 and RAD54 inh -2.
Screening Cn1nc(C(=O)NNC(=O)c2ccccc2F)c2ccccc2c1=O returned RAD52 anneal inh -3, Xi reactivation 0, UUG fidelity -41 and RAD54 inh 3.
